From patent US20030153073A1, “Expansion of T cells in vitro and expanded T cell populations” (priority 2001, published 2003)

Assays:
[1] = test system: CD3^+hCD1d/KRN7000 Tetramer^+ T cells; assay: Expansion of CD3+ hCD1d/KRN7000 Tetramer+ T cells in PBMC culture, 7 days; assay type: cell-based, human
Experimental: PBMC (1×10^6/ml) were cultured with KRN7000 alone (100 ng/ml), rhIL-2 alone, or with 100 ng/ml of KRN7000 plus 10 ng/ml rhIL-2 or 100 ng/ml rhIL-15 for 7 days. Percentage of CD3^+Tetramer^+ cells was determined by flow cytometry using antibody to CD3 and hCD1d/KRN7000 Tetramer. […] The number of Tetramer^+ cells was determined by multiplying the percentage of CD3 ^+Tetramer^+ cells by the number of cells recovered.

PBMC = assay: Proliferation of PBMCs, [3H]-thymidine incorporation; assay type: cell-based, human; details: donor 9 PBMC, 5 days, tritiated thymidine incorporation
Experimental: Proliferation of PBMCs was measured in triplicate in 96-well flat-bottomed plates with 2×10^5 cells/well (0.2 ml). Cells were cultured for 5 days and pulsed with [^3H]-thymidine (1 μCi/well, ICN Pharmaceuticals, Irvine, Calif.) for the last 12 hours.
One of 5 representative donors is shown.

Vα24^+Vβ11^+ T cells = details: donor 9 PBMC

## IL-2 only: recombinant human interleukin-2
[1]; PBMC 1×10^6/ml, 7 days, KRN7000 100 ng/ml, rhIL-2 10 ng/ml, rhIL-15 100 ng/ml, flow cytometry
  % CD^3+ Tetramer^+ cells: 0.28%
[1]; percentage × cells recovered, day 7
  number of Tetramer^+ cells: 1,988
PBMC
  Proliferation, cpm: 30,233 cpm
Vα24^+Vβ11^+ T cells; 7 days, flow cytometry
  Percentage of Vα24/Vβ11 cells: 0.20%
Vα24^+Vβ11^+ T cells; day 7, cell recovery × percentage
  Number of Vα24Vβ11 cells: 2,020
